According to paper PMC1925065, “Functional characterization of two melanocortin (MC) receptors in lamprey showing orthology to the MC1 and MC4 receptor subtypes” (BMC Evolutionary Biology, 2007):

Target: T1, lamprey MCa receptor (Lampetra fluviatilis, UniProt A6XB56)
T1 sequence (A6XB56 1-341): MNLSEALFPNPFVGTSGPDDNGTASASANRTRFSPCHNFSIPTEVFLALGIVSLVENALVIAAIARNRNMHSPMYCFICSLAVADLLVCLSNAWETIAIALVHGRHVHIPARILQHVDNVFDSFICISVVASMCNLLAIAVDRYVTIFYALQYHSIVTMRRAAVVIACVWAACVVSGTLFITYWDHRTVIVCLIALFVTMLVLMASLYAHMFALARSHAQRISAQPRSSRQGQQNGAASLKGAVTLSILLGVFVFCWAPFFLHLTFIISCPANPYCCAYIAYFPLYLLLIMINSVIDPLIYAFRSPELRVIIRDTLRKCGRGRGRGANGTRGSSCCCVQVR
Test: Radioligand binding assay (saturation and competition, [125I] NDP-MSH), lamprey MCa
Set-up: species or system river lamprey
Conditions: HEK-293 EBNA membranes, 0.6 nM [125I] NDP-MSH, pH 7.4, 2 h, room temperature; mean ± SEM, duplicate, at least three independent experiments; * P < 0.01 (α-MSH, γ1-MSH, ACTH(1–39), MSH-A); read-out: Ki (mean ± SEM) from competition curves, lamprey MCa
Description: HEK-293 (human embryonic kidney) cells with Epstein-Barr nuclear antigen (EBNA) grown to 50–70% confluence were transfected with 10 μg of the construct using FuGENE-6 Transfection Reagent (Roche, Sweden) according to the manufacturers' instruction. The cells were grown in Dulbeccos Modified Eagle Media and F-12 Nutrient Mixture (D-MEM/F-12) (1:1) with GlutaMAX I containing 10% foetal bovine serum, 100 u/ml penicillin, 100 μg/ml streptomycin, 2.5 ug/ml amphotericin B, and 250 μg/ml geneticin G-418 (Invitrogen); in humidified atmosphere of 95% air and 5% CO2 at 37°C. Semi-stable cell lines, expressing target receptor, were obtained by selecting for growth in the presence of 100 μg/ml hygromycin B (Invitrogen), first added 24 hours after transfection.
HEK-293 EBNA cells expressing MC receptors were harvested from plate and resuspended in binding buffer composed of 25 mM HEPES, 2.5 mM CaCl2, 1 mM MgCl2 and 0.2% bacitracin, pH adjusted to 7.4. To obtain the membranes, cells were mechanically homogenized with Ultra Turrax. […] MeltiLex A scintillator sheets (Perkin Elmer, USA) were melted on dried filters and radioactivity was counted with an automatic Microbeta counter 1450 (Perkin Elmer). […] The results were analysed with Prism 3.0 software package (GraphPad, USA). […]

Substance: β-melanocyte stimulating hormone [β-MSH]
- Ki: 54.7 ± 5.1 nM
